# Antibody variant affinities, Ab-14 light chain, assay 1

The target is the same throughout: PDVDLGDISGINAS, from the HR2 region of SARS-CoV-2 spike.

Each scFv is VH, three GGGGS repeats, VL, as in the parent Ab-14, and differs from it in the CDRs of the light chain only.
VH: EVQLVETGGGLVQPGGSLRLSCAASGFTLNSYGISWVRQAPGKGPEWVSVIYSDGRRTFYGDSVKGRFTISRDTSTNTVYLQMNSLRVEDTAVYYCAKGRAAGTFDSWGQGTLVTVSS
VL: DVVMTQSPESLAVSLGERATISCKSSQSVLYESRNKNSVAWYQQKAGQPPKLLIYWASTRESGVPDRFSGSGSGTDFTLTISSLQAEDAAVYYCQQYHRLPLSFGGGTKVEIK

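AAYL50 was designed without a model: most single CDR substitutions and a random sample of double and triple ones. Affinity was read by AlphaSeq, a pooled yeast mating assay with surface-displayed partners. Binding brings cells together so that they mate, and sequencing counts the barcode pairs among the diploids. Each replicate has its own calibration line, from reference interactions of the BCL2 family. Each pool was mated in three replicate cultures.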

Variants are written as CDR1, CDR2 and CDR3 of the light chain (limits as in the source). Parent: KSSQSVLYESRNKNSVA, WASTRES, QQYHRLPLS.
Values are log10 of the apparent Kd in nM; lower means stronger binding.
An entry "ND" has no value in the source: the pair was not observed among the diploids in that replicate. This suggests poor binding but is not conclusive.

CDR-L1 | CDR-L2 | CDR-L3 | replicates, log10 nM | empty controls
ESSWSVLYESRNKNSVA | WASTRES | QQYHRVPLS | ND / ND / ND | 1/9 (3.17)
KSSQSVLYESRNKNSVA | WKSTCES | QQYHALPLS | 2.43 / ND / ND | 0/9
KSSQSVLYESRNKNSVA | GASTRES | SLYHRLPLS | 0.45 / 0.69 / 0.48 | 4/9 (4.58)
LSSQATLYESRNKNSVA | WASTRES | QQYHRLPLS | 2.35 / 2.12 / 2.35 | 8/9 (4.76)
KSSQSVLYESRNKNSVA | WASTREG | QQQERLPLS | ND / ND / ND | 0/9
KSSQSVLYESRNFNSVA | DASTRIS | QQYHRLPLS | -0.52 / -0.15 / -0.45 | 3/9 (3.58)
KSSQSVTYESRNKNSVA | WASTRES | NWYHRLPLS | 2.20 / 2.27 / 2.23 | 1/9 (3.89)
KSSQSVLYMPRNKNSVA | WASTRES | QQPHRLPLS | 0.68 / 0.80 / 0.96 | 0/9
KSCQSVLYESRNKNSVA | WASTRKS | QQYHRLVLS | ND / ND / ND | 0/9
KSSQSVLYESRNKNSVA | WASTRES | QSYIRLPIS | 3.19 / 3.24 / 3.13 | 0/9
KSSQSVNYESRNKNSVA | AASTEES | QQYHRLPLS | 1.98 / 2.02 / 2.06 | 2/9 (3.45)
KSSQSVLYEPRNKNSVA | WASTRES | QQYHRLPLS | 2.43 / 2.87 / 3.57 | 4/9 (4.25)
KSSQSVFYESRNKNSVA | WASTRES | QQYPRLHLS | 0.23 / 0.53 / 0.65 | 0/9
KSSQSVLLESRVKNSVA | WASTRES | DQYHRLPLS | ND / ND / ND | 0/9
KSSQSVLYESRNKGSVA | WASRRES | QQYHMLPLS | 1.61 / 1.89 / 3.33 | 0/9
KSSQSYLYESRNKNMVA | WASHRES | QQYHRLPLS | 2.17 / 2.00 / 2.32 | 1/9 (2.77)
KSAQSVLYESRHKNSVA | WASTRGS | QQYHRLPLS | 2.22 / 2.27 / 2.62 | 5/9 (4.64)
KSSQSVLYESRNKNSVA | VASTRES | KQCHRLPLS | ND / ND / ND | 1/9 (4.17)
KSSQSVLYESRNQNSVA | WASTRES | QQYHRLPLS | 2.20 / 2.19 / 2.53 | 4/9 (4.14)
PSSGSVLYESRNKNGVA | WASTRES | QQYHRLPLS | 3.64 / 3.98 / ND | 0/9
KSSQLVLYESRNKNSVA | WASTHES | QQYHRYPLS | 5.34 / ND / 6.08 | 1/9 (3.51)
KSSQSVLYESRNFHSVA | WASTRES | QQYHRLPHS | 1.05 / 1.38 / 1.27 | 4/9 (4.25)
KSSQSVLCDSRNKNSVA | WASTRES | QQYHREPLS | 2.44 / 1.81 / 2.17 | 1/9 (4.13)
KSSQSVFYESRNKNTVA | WISTRES | QQYHRLPLS | ND / ND / ND | 0/9
KSSQSVLYESRNKNSVR | WASTRES | MQYHRLPFS | ND / ND / ND | 0/9
KSLQSVLYESRNKNIVA | WASTRES | QQYHRLNLS | 3.00 / ND / ND | 4/9 (3.62)
KSLQSVLYHSRNKNSVA | WASTRES | QTYHRLPLS | 3.83 / 3.18 / 3.04 | 0/9
KSSQSVLYESRNKNSVA | YASTRKS | QNYHRLPLS | ND / 2.44 / ND | 1/9 (2.05)
KSGQSVLYESRNKNSVD | WASTRES | QQYHLLPLS | ND / ND / ND | 1/9 (4.10)
KSSQSVDHESRNKNSVA | WASTRES | QQYFRLPLS | 1.34 / 1.23 / 1.32 | 1/9 (5.33)
KSSQSVLYESRNKNSVA | WASYRES | QAWHRLPLS | 1.95 / 2.78 / 3.00 | 1/9 (4.18)
KSSQSVLYESINKNSVA | WASTAES | QQYHRLCLS | ND / 2.41 / 3.26 | 4/9 (3.14)
KSSQSCLYESRNKNSVA | WASTAES | PQYHRLPLS | ND / ND / ND | 1/9 (4.52)
KSSQSVLYESRNKPSVA | WASTRES | SQYHRLPLI | ND / 3.90 / ND | 0/9
KASQSVLYESRNKNSVA | EASTQES | QQYHRLPLS | 0.37 / 0.59 / 0.48 | 2/9 (4.47)
KSSQSVVYESENKNSVA | WASTRIS | QQYHRLPLS | -0.54 / 0.05 / -0.16 | 0/9
KSSQSVLYESRNKNSVA | WAWFRES | QQYHRLPLS | ND / ND / ND | 0/9
KSSQSVLYESRNKNSDA | WASTRDS | QQYHPLPLS | ND / ND / ND | 0/9
KSSQSVLRESRNKNSVA | WMSTRES | QQYHRLPLS | 2.99 / 2.91 / 3.11 | 2/9 (4.98)
KSWQPVLYESRNKNFVA | WASTRES | QQYHRLPLS | ND / ND / ND | 1/9 (4.71)
KSSQSVLLESRNKNSYA | WASTRES | QQYHRLPLI | ND / ND / ND | 3/9 (4.77)
KSSQSKLYESRNKNSVA | FASTRES | QQYHRLPLI | 1.25 / 1.21 / 1.27 | 1/9 (4.20)
GSSQSVWYESRNKNSVA | WDSTRES | QQYHRLPLS | 1.64 / 1.65 / 2.13 | 2/9 (4.55)
KSSCSVLYESRNKNSVA | WASTRES | QQYHLLELS | 2.92 / 2.14 / 2.36 | 0/9
KSSQKVLYWSRNKNSVA | WASTRES | WQYHRLPLS | ND / ND / ND | 0/9
RSSQSVLYESRNKNSVA | WASTREF | QQYHRLRLS | 2.74 / ND / 2.51 | 0/9
KSSRSVLYESRNKNSVA | WASTRES | QQYHRKPLE | 1.58 / 1.31 / 1.25 | 1/9 (3.81)
KGSQSVLYESRNKNSVA | WASTRES | QQYYRLPLS | 0.77 / 1.12 / 0.97 | 1/9 (4.44)
KSSQSVLYESRNFNSVA | LASTRES | QQPHRLPLS | ND / ND / ND | 0/9
KSSQSVLYEDRNKNSVA | WPSTRES | QQYHRLPLS | 5.01 / 4.60 / 5.39 | 6/9 (4.55)
KSSQSKLYESRNKNSVA | WASTRES | DQYHRLPLS | ND / ND / ND | 0/9
KSSQSVLYESRNKNWVA | WAKTRES | QQYDRLPLS | ND / ND / 4.36 | 5/9 (4.63)

Picked from the list: the 3 lowest averages where every replicate gave a value.

| CDR-L1 | CDR-L2 | CDR-L3 | replicates, log10 nM | empty controls |
|---|---|---|---|---|
| KSSQSVLYESRNFNSVA | DASTRIS | QQYHRLPLS | -0.52 / -0.15 / -0.45 | 3/9 (3.58) |
| KSSQSVVYESENKNSVA | WASTRIS | QQYHRLPLS | -0.54 / 0.05 / -0.16 | 0/9 |
| KSSQSVFYESRNKNSVA | WASTRES | QQYPRLHLS | 0.23 / 0.53 / 0.65 | 0/9 |

Background: pairings of library AAYL50 with three empty control strains gave a value in 18% of cases (median 4.19, 5th percentile 2.99). Values in that range, when seen in few replicates, are hard to tell from nonspecific mating. Also given: how often the same scFv was detected with the empty control strains, with their mean in brackets.

The measurements come from Engelhart et al. 2022 (doi:10.1038/s41597-022-01779-4) through the FLAb antibody collection.